Laboratory results: PubChem BioAssay AID2690 (NMMLSC, 2010)
Only a part is listed here, and it is no random draw. Active and inactive are the calls of the source.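 Rule for the calls: active = superoxide response under a set limit, about three screen SD below normal (cut at about 65% in these data); inactive = the rest.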

Assay: yeast aging ROS inhibitors as calorie-restriction mimetics – HTS, primary screen (AID 2690);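 note: yeast aged for seven days with compound at 30 °C before DHE staining; 100% = average MFI of all compound-treated wells on the plate with controls excluded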
Conditions: S. cerevisiae aged cells, superoxide DHE fluorescence; at 10 µM; active compounds read low

| SMILES | superoxide response (% of plate mean) |
| --- | --- |
| O=C(Nc1cc([As](=O)(O)O)ccc1O)c1ccccc1 | inactive: 87.6% |
| CC(C)(C)C(=O)NC(Sc1ccncn1)C(Cl)(Cl)Cl (centres undefined) | inactive: 98.2% |
| O=[N+]([O-])c1ncn(CCn2ncnc2[N+](=O)[O-])n1 | inactive: 154% |
| O=[N+]([O-])c1cccc(NC2=NCC(CBr)S2)c1 (centres undefined) | inactive: 93.9% |
| O=C(O)CNc1ccc([As](=O)(O)O)cc1 | inactive: 104% |
| COc1ccc(C2=NCC(CBr)S2)cc1 (centres undefined) | inactive: 89.4% |
| CC(=O)N1C2C3N(C(C)=O)C1C1N(C(C)=O)C(C(N1C(C)=O)N3C(C)=O)N2C(C)=O | inactive: 95.8% |
| O=[N+]([O-])c1cccc2n[nH]nc12 | inactive: 124% |
| O=[N+]([O-])c1cc([N+](=O)[O-])c(CCNc2ccccc2)c([N+](=O)[O-])c1 | inactive: 117% |
| CCc1nc2c(n1)c1c(non1O)c1c2no[n+]1[O-] | inactive: 109% |
| Cc1ccc(NP(=O)(Oc2ccccc2)Oc2ccccc2)nc1 | inactive: 98.9% |
| C[N+]1=C2C=CC=CC=C2SC12C([N+](=O)[O-])=CC([N+](=O)[O-])=C[C-]2[N+](=O)[O-] (centres undefined) | inactive: 116% |
| Nc1ccc([As](=O)(O)c2ccc(N)cc2)cc1 | inactive: 107% |
| CCN(/C(=N/P(=O)(N1CCOCC1)N1CCOCC1)N1CCOCC1)c1ccc(OC)cc1 | inactive: 96.5% |
| CN(C)C(=O)OCCc1n(C)cc[n+]1C | inactive: 97.5% |
| CC(C)=N/N=C(\N)N[N+](=O)[O-] | inactive: 99.5% |
| CC1CCN(C(=O)Oc2c(Cl)cc(Cl)c3cccnc23)CC1 | inactive: 96.9% |
| NC(=O)c1cc([N+](=O)[O-])cc([N+](=O)[O-])c1N | inactive: 97.9% |
| Cc1ccc(N/C(=N/P(=O)(N2CCOCC2)N2CCOCC2)N2CCOCC2)cc1 | inactive: 90.7% |
| CN(C(=O)Cc1ccc(Cl)c(Cl)c1)[C@H]1CCCC[C@H]1N1CCCC1 | inactive: 88.2% |
| Cc1ccc(OP(=O)(Nc2nccs2)Oc2ccc(C)cc2)cc1 | inactive: 120% |
| COc1ccccc1OP(=O)(Nc1ccc(C)cn1)Oc1ccccc1OC | inactive: 86.3% |
| Clc1ccc(Cl)c(NC2=NCC(CBr)S2)c1 (centres undefined) | inactive: 102% |
| CN1CCCC(OC(=O)C(c2ccccc2)c2ccccc2)C1 (centres undefined) | inactive: 104% |
| CC(C)CC(=O)NC(Sc1ccc(Cl)cc1)C(Cl)(Cl)Cl (centres undefined) | inactive: 104% |
| Nc1cc(N)c2nonc2c1[N+](=O)[O-] | inactive: 94.7% |

| SMILES | superoxide response (% of plate mean) |
| --- | --- |
| Cc1c2non([O-])c-2c(C)[n+](=O)[n+]1[O-] | inactive: 86.4% |
| O=C(NC(Sc1ccncn1)C(Cl)(Cl)Cl)c1ccccc1 (centres undefined) | inactive: 104% |
| Oc1ccccc1CNc1ccccn1 | inactive: 98.5% |
| O=C(O)c1ccccc1[As](=O)(O)O | inactive: 108% |
| CC(=O)Nc1ccc([As](=O)(O)O)cc1 | inactive: 102% |
| O=P(Nc1nc2ccc(Cl)cc2s1)(c1ccccc1)c1ccccc1 | inactive: 106% |
| CN(C(=O)Cc1ccc(Cl)c(Cl)c1)[C@H]1CCCC[C@@H]1N1CCCC1 | inactive: 104% |
| Cc1ccc(NP(=O)(Oc2ccccc2F)Oc2ccccc2F)nc1 | inactive: 108% |
| CCOP(=O)(Nc1ccccc1)OCC | inactive: 114% |
| Cc1cc(SC(NC(=O)c2ccc(F)cc2)C(Cl)(Cl)Cl)ncn1 (centres undefined) | inactive: 96.2% |
| O=[N+]([O-])c1cc([N+](=O)[O-])c(CCN2CCOCC2)c([N+](=O)[O-])c1 | inactive: 127% |
| CCN(N=Nc1nonc1N)c1nonc1N | inactive: 110% |
| Nc1cccc2ccc([As](=O)(O)O)cc12 | inactive: 116% |
| O=C(NC1CCS(=O)(=O)C1)NP(=S)(Oc1ccccc1)Oc1ccccc1 (centres undefined) | inactive: 97.5% |
| CCNC(=S)/N=C(\N)N[N+](=O)[O-] | inactive: 101% |
| Cc1ccc(NP(=O)(Oc2cccc(C)c2)Oc2cccc(C)c2)nc1 | inactive: 116% |
| CCOC(=O)NC(Sc1ccccc1)C(Cl)(Cl)Cl (centres undefined) | inactive: 88.1% |
| c1ccc(-c2nn[nH]n2)c(-c2nn[nH]n2)c1 | inactive: 103% |
| CC(=O)NC(SC(=S)N(CC(C)C)CC(C)C)C(Cl)(Cl)Cl (centres undefined) | inactive: 99.5% |
| Cc1ccc(OP(=O)(Nc2ccccn2)Oc2ccc(C)cc2)cc1 | inactive: 98.2% |
| COC(=O)c1cc2c(s1)N=C(c1ccccc1)N(C)P2(=O)N1CCOCC1 (centres undefined) | inactive: 95.5% |
| CCC(=O)N1C2C3N(C(=O)CC)C1C1N(C(=O)CC)C(C(N1C(=O)CC)N3C(=O)CC)N2C(=O)CC | inactive: 96.9% |
| O=C(OC1CN2CCC1CC2)c1ccccc1 (centres undefined) | active: 40% |
| CN(C)C(=O)Oc1noc2ccccc12 | inactive: 116% |
| Cc1ccccc1OP(=O)(Nc1ccccn1)Oc1ccccc1C | inactive: 99.6% |
| CC(NC(=O)COC(=O)C(O)(c1ccccc1)c1ccccc1)c1ccccc1 (centres undefined) | inactive: 105% |

| SMILES | superoxide response (% of plate mean) |
| --- | --- |
| CCOc1ccc(C2=NCC(CBr)S2)cc1 (centres undefined) | inactive: 102% |
| O=P1(Nc2nc3ccc(Cl)cc3s2)COc2ccccc2O1 (centres undefined) | inactive: 94% |
| CC(C)(C)C(=O)NC(Sc1ccccc1)C(Cl)(Cl)Cl (centres undefined) | inactive: 96.2% |
| CC(=O)c1ccc(N2CC2c2ccncc2)cc1 (centres undefined) | inactive: 86.7% |
| C[C@@H]1C=CCP(=O)(Oc2ccccc2)O1 (some centres undefined) | inactive: 94.3% |
| C[C@H]1OP(=O)(Oc2ccccc2)C[C@@H]2O[C@@H]21 (some centres undefined) | inactive: 103% |
| Cc1ccccc1CN(C)C(=O)COC(=O)C(O)(c1ccccc1)c1ccccc1 | inactive: 94.2% |
| CC(=O)Nc1ccc(Oc2c([N+](=O)[O-])cc([N+](=O)[O-])cc2[N+](=O)[O-])cc1 | inactive: 160% |
| CC(=O)Nc1ccc([As](=O)(O)O)c(O)c1 | inactive: 96.1% |
| O=P(Nc1nccs1)(c1ccccc1)c1ccccc1 | inactive: 95.2% |
| CC(C)C(=O)NC(Sc1ccccc1)C(Cl)(Cl)Cl (centres undefined) | inactive: 77.3% |
| c1nnnn1CCn1cnnn1 | inactive: 116% |
| CN(C)C1(CNC(=O)c2ccc(Cl)c(S(N)(=O)=O)c2)CCCCC1 | inactive: 101% |
| O=P(Nc1ccccn1)(c1ccc(Br)cc1)c1ccc(Br)cc1 | inactive: 97.7% |
| C[C@H]1OP(=O)(Oc2ccccc2)[C@H](O)[C@H](O)[C@H]1N=[N+]=[N-] (some centres undefined) | inactive: 94.1% |
| O=P(Nc1nc2ccccc2s1)(c1ccccc1)c1ccccc1 | inactive: 85.7% |
| CC(=O)NC(SC(=S)N(C)C)C(Cl)(Cl)Cl (centres undefined) | inactive: 89.9% |
| O=[N+]([O-])c1ncn(CCn2cnc([N+](=O)[O-])n2)n1 | inactive: 125% |
| O=[N+]([O-])c1ccc(O)c(/C=N/Nc2ccc([N+](=O)[O-])cc2[N+](=O)[O-])c1 | inactive: 95.8% |
| O=[As](O)(c1ccccc1)c1ccc(O)cc1 | inactive: 104% |
| Nc1ccc([As](=O)(O)c2ccc([N+](=O)[O-])cc2)cc1 | inactive: 122% |
| C(Cc1nn[nH]n1)Cc1nn[nH]n1 | inactive: 101% |
| O=C(OC1CN2CCC1CC2)c1cccc(Cl)c1 (centres undefined) | inactive: 97.7% |
| Cc1ccc(C(=O)OC2CN3CCC2CC3)cc1 (centres undefined) | inactive: 107% |
| CC1CCC(C(C)C)C(OP(=O)(Nc2ccccn2)c2ccccc2)C1 (centres undefined) | inactive: 81.3% |
| Cc1nn(-c2ccccc2)c2c1P(=O)(N1CCOCC1)N(C)C(c1ccccc1)=N2 (centres undefined) | inactive: 95.3% |

| SMILES | superoxide response (% of plate mean) |
| --- | --- |
| O=C(/C=C/c1ccccc1)OC1CN2CCC1CC2 (centres undefined) | inactive: 101% |
| CN(C)C1(CNC(=O)c2ccc(S(C)(=O)=O)cc2)CCCCC1 | inactive: 107% |
| O=P1(Nc2ncccn2)COc2ccccc2OC1 | inactive: 109% |
| NS(=O)(=O)c1cccc(NC(=O)COC(=O)C(O)(c2ccccc2)c2ccccc2)c1 | inactive: 115% |
| O=P1(Nc2ccc(Br)cn2)COc2ccccc2OC1 | inactive: 87.2% |
| Cc1ccc(OCC(=O)OC2CN3CCC2CC3)cc1 (centres undefined) | inactive: 96.6% |
| O=[As](O)(c1cccs1)c1cccs1 | inactive: 67.4% |
| Nc1cccc([As](=O)(O)c2ccccc2)c1 | inactive: 101% |
| CN(CCCl)Cc1cc(Cl)c(NC2=NCCN2)c(Cl)c1 | inactive: 100% |
| CCOP(=O)(Nc1ccc(C)cn1)OCC | inactive: 75.8% |
| CCOP(=O)(NC(=NC(C)c1ccccc1)NC(C)c1ccccc1)OCC (centres undefined) | inactive: 109% |
| CCC1=CC2Cc3nc4ccc(Cl)cc4c(N)c3C(C1)C2 (centres undefined) | inactive: 100% |
| O=P1(Nc2ccccn2)COc2ccccc2OC1 | inactive: 106% |
| CC(C)(C)C(=O)NC(Sc1ncccn1)C(Cl)(Cl)Cl (centres undefined) | inactive: 109% |
| Clc1n[nH]nc1-c1nn[nH][15n]1 | inactive: 103% |
| COc1ccccc1CNC(=O)COC(=O)C(O)(c1ccccc1)c1ccccc1 | inactive: 89.2% |
| CC1(CBr)Cn2c(nc3ccccc3c2=O)S1 (centres undefined) | inactive: 103% |
| O=[As](O)(c1ccccc1Br)c1ccccc1Br | inactive: 112% |
| CN(C(=O)Cc1ccc(Cl)c(Cl)c1)[C@@H]1CCCC[C@H]1N1CCCC1 | inactive: 96.7% |
| CC(C)/C=N\N=C(\N)N[N+](=O)[O-] | inactive: 90.2% |
| CS(=O)(=O)c1ccc(Cl)c(NC(=O)COC(=O)C(O)(c2ccccc2)c2ccccc2)c1 | inactive: 99.5% |
| COc1cc(C(=O)NCC2(N3CCOCC3)CCCCC2)cc(Cl)c1OC(C)C | inactive: 99.1% |
| O=[As](O)(O)c1cccnc1 | inactive: 88.6% |
| O=C(OC1CN2CCC1CC2)c1ccc(Cl)cc1 (centres undefined) | inactive: 107% |
| O=[As](O)(c1cccc(O)c1)c1cccc(O)c1 | inactive: 112% |
| Cc1cccc(OCC(=O)OC2CN3CCC2CC3)c1 (centres undefined) | inactive: 92.8% |
